Experimental data from US9193736B2, “PDE 10a inhibitors for the treatment of type II diabetes” (Janssen Pharmaceutica, NV, priority 2013, dated 2015).

Sequences of proteins named here, by UniProt entry; tags and fusion partners are left off. Residues count along the entry.
UniProt Q9Y233, 267-1055: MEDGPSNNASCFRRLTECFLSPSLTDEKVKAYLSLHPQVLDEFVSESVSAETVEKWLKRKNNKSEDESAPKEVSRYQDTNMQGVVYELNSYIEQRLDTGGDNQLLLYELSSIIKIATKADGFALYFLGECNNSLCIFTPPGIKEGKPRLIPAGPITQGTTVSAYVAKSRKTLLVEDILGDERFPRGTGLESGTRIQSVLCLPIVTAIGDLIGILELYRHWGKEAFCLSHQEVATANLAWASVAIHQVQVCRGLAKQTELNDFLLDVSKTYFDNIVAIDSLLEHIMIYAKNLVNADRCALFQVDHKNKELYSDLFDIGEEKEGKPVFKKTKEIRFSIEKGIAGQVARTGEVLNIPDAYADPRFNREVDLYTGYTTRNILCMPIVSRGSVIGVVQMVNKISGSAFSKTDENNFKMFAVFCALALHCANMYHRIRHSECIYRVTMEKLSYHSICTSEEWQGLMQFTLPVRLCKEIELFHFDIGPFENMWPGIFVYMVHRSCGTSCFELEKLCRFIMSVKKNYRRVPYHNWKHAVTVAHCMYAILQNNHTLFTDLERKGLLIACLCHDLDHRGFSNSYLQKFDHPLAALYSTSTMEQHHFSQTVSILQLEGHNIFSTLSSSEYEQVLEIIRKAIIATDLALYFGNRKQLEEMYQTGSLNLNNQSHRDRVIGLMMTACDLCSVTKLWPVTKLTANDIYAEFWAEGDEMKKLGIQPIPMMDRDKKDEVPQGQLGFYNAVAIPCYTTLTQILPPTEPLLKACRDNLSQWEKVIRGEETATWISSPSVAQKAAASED

Biological target: Human recombinant PDE10A2 (Homo sapiens (Human), UniProt Q9Y233)
Test: In vitro hPDE10a: human recombinant PDE10A2 scintillation proximity assay, IC50
Format: biochemical
Details: human recombinant PDE10A2, SPA, 60 nM cAMP; read-out: hPDE10a2 IC50
Protocol: In Vitro hPDE10a […] Cells were harvested and the phosphodiesterase protein was purified by metal chelate chromatography on Ni-sepharose 6FF. The affinity of the compounds of Formula (I) for phophodiesterases (PDE) was measured by a scintillation proximity assay (SPA). PDE Yttrium Silicate SPA beads allow PDE activity to be measured by direct binding of the primary phosphate groups of non-cyclic AMP or GMP to the beads via a complex iron chelation mechanism. The amount of bound tritiated product ([^3H]-AMP) is measured by liquid scintillation counting. The compounds were dissolved and diluted in 100% DMSO in polystyrene plates to a concentration of 100-fold the final concentration in the assay. […] After incubation, the reaction was stopped with 20 μL of stop solution, consisting of PDE SPA beads (17.8 mg beads/mL in 18 mM zinc sulphate). […] To measure the low control, no enzyme was added to the reaction mixture. Data were calculated as the percentage of inhibition of total activity measured in the absence of test compound (% control). […] For compounds tested more than once, the data points were aggregated.

Work on O=C(O)C1(c2ccc(-c3c([C@H]4C[C@H](c5ccc6ccccc6n5)C4)nc4c(N5CCOCC5)ccnn34)cc2)CC1 [Cpd 175, 1-{4-[8-Morpholin-4-yl-2-(trans-3-quinolin-2-ylcyclobutyl)imidazo[1,2-b]pyridazin-3-yl]phenyl}cyclopropanecarboxylic acid] yielded an IC50 of 2 nM.
